Measurements: PubChem BioAssay AID687016 (The Scripps Research Institute Molecular Screening Center, 2013)
The list shows a part of the results, in another mix than the full data. Active and inactive are the calls of the source. Cut-off read from the data, not from the text of the source: active = inhibition above about 21%; inactive = the rest.

The chains behind the UniProt entries cited, without tags or fusion partners. Where a name states a change or a piece, a line headed by the entry shows the natural chain unless it says otherwise.
UniProt Q96T88: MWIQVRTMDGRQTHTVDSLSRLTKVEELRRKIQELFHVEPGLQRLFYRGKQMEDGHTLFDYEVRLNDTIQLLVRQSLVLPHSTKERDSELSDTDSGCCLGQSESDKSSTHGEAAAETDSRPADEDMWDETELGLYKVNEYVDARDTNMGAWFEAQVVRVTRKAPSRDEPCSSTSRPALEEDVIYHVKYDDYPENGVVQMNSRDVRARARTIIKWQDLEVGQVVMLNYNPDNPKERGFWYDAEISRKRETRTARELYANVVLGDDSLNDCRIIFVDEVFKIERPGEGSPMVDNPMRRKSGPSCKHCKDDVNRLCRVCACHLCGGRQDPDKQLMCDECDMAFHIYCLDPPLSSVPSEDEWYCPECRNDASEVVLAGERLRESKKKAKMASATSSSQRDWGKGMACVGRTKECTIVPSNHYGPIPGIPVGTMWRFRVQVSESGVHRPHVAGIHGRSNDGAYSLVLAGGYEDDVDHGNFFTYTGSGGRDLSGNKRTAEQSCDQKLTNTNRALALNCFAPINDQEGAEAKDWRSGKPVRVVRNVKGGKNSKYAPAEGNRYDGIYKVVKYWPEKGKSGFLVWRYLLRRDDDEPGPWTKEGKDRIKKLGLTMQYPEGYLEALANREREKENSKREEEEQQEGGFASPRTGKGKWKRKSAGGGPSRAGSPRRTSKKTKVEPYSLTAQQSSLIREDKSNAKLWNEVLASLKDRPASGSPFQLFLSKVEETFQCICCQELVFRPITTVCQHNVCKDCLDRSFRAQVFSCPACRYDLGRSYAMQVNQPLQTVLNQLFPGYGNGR

What follows are compounds tested against E3 ubiquitin-protein ligase UHRF1 (Homo sapiens) (UniProt Q96T88) (assay: blockers of UHRF1 binding to methyl-oligo – biochemical, TR-FRET, human UHRF1, single concentration, counter-screen for MBD2 inhibitor project, primary screen (AID 687016;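 note: UHRF1 SRA domain binding a hemimethylated CpG hairpin DNA probe; 0% = median of test compound wells and 100% = reference inhibitor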)). Settings: UHRF1 binding to methylated oligo, at 4.4 µM, active compounds read high.

SMILES	inhibition
O=[As](O)(c1ccccc1)c1ccc(O)cc1	inactive: 1.93%
O=[N+]([O-])c1ncn(CCn2cnc([N+](=O)[O-])n2)n1	inactive: -0.56%
CC(=O)NC(SC(=S)N(C)C)C(Cl)(Cl)Cl (stereo unspecified)	inactive: 0.54%
O=C(OC1CN2CCC1CC2)c1cccc(Cl)c1 (stereo unspecified)	inactive: 1.74%
Nc1ccc([As](=O)(O)c2ccc([N+](=O)[O-])cc2)cc1	inactive: -2.33%
C(Cc1nn[nH]n1)Cc1nn[nH]n1	inactive: -0.77%
C/C(N)=N\P(=O)(OCc1ccccc1)OCc1ccccc1	inactive: -1.82%
CN(C)C1(CNC(=O)c2ccc(Cl)c(S(N)(=O)=O)c2)CCCCC1	inactive: -0.53%
O=P(Nc1ccccn1)(c1ccc(Br)cc1)c1ccc(Br)cc1	inactive: -0.06%
Nc1ccc(CCCCOc2ccccc2)cc1	inactive: 1.09%
COc1ccc(N)c([N+](=O)[O-])c1[N+](=O)[O-]	inactive: -5.1%
C[C@H]1OP(=O)(Oc2ccccc2)[C@H](O)[C@H](O)[C@H]1N=[N+]=[N-] (stereo partly specified)	inactive: -2%
O=P(Nc1nc2ccccc2s1)(c1ccccc1)c1ccccc1	inactive: -1.6%
O=P(Nc1nccs1)(c1ccccc1)c1ccccc1	inactive: -0.64%
CC(C)C(=O)NC(Sc1ccccc1)C(Cl)(Cl)Cl (stereo unspecified)	inactive: 0.93%
c1nnnn1CCn1cnnn1	inactive: -3.51%
C[C@@H]1C=CCP(=O)(Oc2ccccc2)O1 (stereo partly specified)	inactive: 3.81%
C[C@H]1OP(=O)(Oc2ccccc2)C[C@@H]2O[C@@H]21 (stereo partly specified)	inactive: -1.18%
Cc1ccccc1CN(C)C(=O)COC(=O)C(O)(c1ccccc1)c1ccccc1	inactive: 0.75%
COC(=O)C1(C)COP(=O)(NCc2ccccc2)OC1 (stereo unspecified)	inactive: 1.19%
N#C/C(=C\c1ccc(N(CCBr)CCBr)cc1)C(N)=O	inactive: -8.98%
CC(=O)c1ccc(N2CC2c2ccncc2)cc1 (stereo unspecified)	inactive: -0.38%
CC(=O)Nc1ccc(Oc2c([N+](=O)[O-])cc([N+](=O)[O-])cc2[N+](=O)[O-])cc1	inactive: -1.22%
CC(=O)Nc1ccc([As](=O)(O)O)c(O)c1	inactive: -2.34%
CCOc1ccc(C2=NCC(CBr)S2)cc1 (stereo unspecified)	inactive: 1.26%
O=P1(Nc2nc3ccc(Cl)cc3s2)COc2ccccc2O1 (stereo unspecified)	inactive: -0.75%

SMILES	inhibition
CC(C)(C)C(=O)NC(Sc1ccccc1)C(Cl)(Cl)Cl (stereo unspecified)	inactive: 0.69%
CCc1cc(O)c([N+](=O)[O-])c(C)c1[N+](=O)[O-]	inactive: 0.07%
CCC(=O)N1C2C3N(C(=O)CC)C1C1N(C(=O)CC)C(C(N1C(=O)CC)N3C(=O)CC)N2C(=O)CC	inactive: -1.63%
O=C(OC1CN2CCC1CC2)c1ccccc1 (stereo unspecified)	inactive: 2.06%
Cc1ccc(OP(=O)(Nc2ccccn2)Oc2ccc(C)cc2)cc1	inactive: -0.66%
CC(=O)NC(SC(=S)N(CC(C)C)CC(C)C)C(Cl)(Cl)Cl (stereo unspecified)	inactive: 0.53%
COC(=O)c1cc2c(s1)N=C(c1ccccc1)N(C)P2(=O)N1CCOCC1 (stereo unspecified)	inactive: -2.89%
CN(C)C(=O)Oc1noc2ccccc12	inactive: -1.56%
O=c1c2cc([N+](=O)[O-])ccc2[nH]c2c([N+](=O)[O-])cc([N+](=O)[O-])cc12	inactive: -1.78%
Cc1ccccc1OP(=O)(Nc1ccccn1)Oc1ccccc1C	inactive: 0.95%
CC(NC(=O)COC(=O)C(O)(c1ccccc1)c1ccccc1)c1ccccc1 (stereo unspecified)	inactive: 1.22%
Cc1ccc(NP(=O)(Oc2cccc(C)c2)Oc2cccc(C)c2)nc1	inactive: 3.49%
c1ccc(-c2nn[nH]n2)c(-c2nn[nH]n2)c1	inactive: -1.86%
O=C(NC1CCS(=O)(=O)C1)NP(=S)(Oc1ccccc1)Oc1ccccc1 (stereo unspecified)	inactive: 7.59%
CCNC(=S)/N=C(\N)N[N+](=O)[O-]	inactive: -3.63%
O=P1(N(CCCl)CCCl)OCCC2CCCCN21 (stereo unspecified)	inactive: 0.96%
Nc1cccc2ccc([As](=O)(O)O)cc12	inactive: 2.71%
CCN(N=Nc1nonc1N)c1nonc1N	inactive: -2.65%
CN(C(=O)Cc1ccccc1)C1CC[C@@]2(CCCO2)C[C@@H]1N1CCCC1 (stereo partly specified)	inactive: -3.27%
CN(C)P(=O)(N(C)C)n1c(Nc2ccccc2)nnc1-c1ccccc1	inactive: -2.56%
O=P(Nc1nc2ccc(Cl)cc2s1)(c1ccccc1)c1ccccc1	inactive: -1.86%
CCCC1OP(N)(=O)OCC1CC (stereo unspecified)	inactive: 0.77%
O=C(O)c1ccccc1[As](=O)(O)O	inactive: 0.55%
CC(=O)Nc1ccc([As](=O)(O)O)cc1	inactive: 4.32%
CCn1c(=O)n(C2CCN(CC3CCCCCCC3)C[C@H]2CO)c2ccccc21 (stereo partly specified)	inactive: 4.63%
CN(C(=O)Cc1ccc(Cl)c(Cl)c1)[C@H]1CCCC[C@@H]1N1CCCC1	inactive: -0.21%

SMILES	inhibition
Cc1ccc(NP(=O)(Oc2ccccc2F)Oc2ccccc2F)nc1	inactive: -1.24%
CCOP(=O)(Nc1ccccc1)OCC	inactive: -0.57%
Cc1cc(SC(NC(=O)c2ccc(F)cc2)C(Cl)(Cl)Cl)ncn1 (stereo unspecified)	inactive: -4.2%
O=C(NC(Sc1ccncn1)C(Cl)(Cl)Cl)c1ccccc1 (stereo unspecified)	inactive: 2.58%
Oc1ccccc1CNc1ccccn1	inactive: 0.53%
CC(C)CC(=O)NC(Sc1ccc(Cl)cc1)C(Cl)(Cl)Cl (stereo unspecified)	inactive: -0.31%
Nc1cc(N)c2nonc2c1[N+](=O)[O-]	inactive: -7.84%
Cc1ccc(N/C(=N/P(=O)(N2CCOCC2)N2CCOCC2)N2CCOCC2)cc1	inactive: -0.8%
CN(C(=O)Cc1ccc(Cl)c(Cl)c1)[C@H]1CCCC[C@H]1N1CCCC1	inactive: -0.75%
NC(=O)c1cc([N+](=O)[O-])cc([N+](=O)[O-])c1N	inactive: -3.48%
Clc1ccc(Cl)c(NC2=NCC(CBr)S2)c1 (stereo unspecified)	inactive: 2.28%
CN1CCCC(OC(=O)C(c2ccccc2)c2ccccc2)C1 (stereo unspecified)	inactive: -0.16%
Cc1ccc(OP(=O)(Nc2nccs2)Oc2ccc(C)cc2)cc1	inactive: 6.75%
COc1ccccc1OP(=O)(Nc1ccc(C)cn1)Oc1ccccc1OC	inactive: 2.78%
CCN(/C(=N/P(=O)(N1CCOCC1)N1CCOCC1)N1CCOCC1)c1ccc(OC)cc1	inactive: -2.79%
C[N+]1=C2C=CC=CC=C2SC12C([N+](=O)[O-])=CC([N+](=O)[O-])=C[C-]2[N+](=O)[O-] (stereo unspecified)	inactive: -4.89%
Nc1ccc([As](=O)(O)c2ccc(N)cc2)cc1	inactive: 0.15%
c1cc(-c2nn[nH]n2)ccc1-c1nn[nH]n1	inactive: 0.1%
CC1CCN(C(=O)Oc2c(Cl)cc(Cl)c3cccnc23)CC1	inactive: -1.36%
CN(C)C(=O)OCCc1n(C)cc[n+]1C	inactive: -1.42%
CC(C)=N/N=C(\N)N[N+](=O)[O-]	inactive: -0.56%
CC(C)c1nc(Nc2ccccc2)n(P(=O)(N(C)C)N(C)C)n1	inactive: 2.8%
COc1ccc(C2=NCC(CBr)S2)cc1 (stereo unspecified)	inactive: 3.18%
O=[N+]([O-])c1cc([N+](=O)[O-])c(CCNc2ccccc2)c([N+](=O)[O-])c1	inactive: -2.75%
CCc1nc2c(n1)c1c(non1O)c1c2no[n+]1[O-]	inactive: -12.9%
Cc1ccc(NP(=O)(Oc2ccccc2)Oc2ccccc2)nc1	inactive: 5.66%

SMILES	inhibition
CC(=O)N1C2C3N(C(C)=O)C1C1N(C(C)=O)C(C(N1C(C)=O)N3C(C)=O)N2C(C)=O	inactive: 1.96%
O=[N+]([O-])c1ncn(CCn2ncnc2[N+](=O)[O-])n1	inactive: 0.48%
CC(C)(C)C(=O)NC(Sc1ccncn1)C(Cl)(Cl)Cl (stereo unspecified)	inactive: 3.01%
O=C(O)CNc1ccc([As](=O)(O)O)cc1	inactive: 1.86%
O=[N+]([O-])c1cccc(NC2=NCC(CBr)S2)c1 (stereo unspecified)	inactive: 6.8%
COC(=O)C1(C)COP(=O)(Nc2ccccc2)OC1 (stereo unspecified)	inactive: 0.61%
O=P1(N(CCCl)CCCl)OCCCS1 (stereo unspecified)	inactive: -1.39%
O=C(Nc1cc([As](=O)(O)O)ccc1O)c1ccccc1	inactive: -0.61%
CCOC(=O)Nc1cccc([As](=O)(O)O)c1	inactive: -1.54%
Cc1cc(SC(NC=O)C(Cl)(Cl)Cl)ncn1 (stereo unspecified)	inactive: 0.19%
O=P(Nc1ccccn1)(c1cccc2ccccc12)c1cccc2ccccc12	inactive: 0.46%
O=[N+]([O-])c1ccc(Nc2ccc(Oc3ccc([N+](=O)[O-])cc3[N+](=O)[O-])cc2)c([N+](=O)[O-])c1	inactive: 0.14%
O=C(O)C(O)c1ccc(N(CCCl)CCCl)cc1 (stereo unspecified)	inactive: -1.8%
CCOC(=O)Nc1ccc([As](=O)(O)O)c(O)c1	inactive: 5.42%
CC1CCNP(=O)(N(CCCl)CCCl)O1 (stereo unspecified)	inactive: 0.14%
COP(=O)(OC)N1CC1c1ccccc1 (stereo unspecified)	inactive: 1.15%
Cc1cc(SC(NC(=O)c2ccccc2)C(Cl)(Cl)Cl)nc(C(C)C)n1 (stereo unspecified)	inactive: -7.33%
CCCCOc1ccc(C(=O)NCC2(N3CCCCC3)CCCCC2)cc1OC	inactive: -0.27%
O=C(OC1CN2CCC1CC2)c1cccc([N+](=O)[O-])c1 (stereo unspecified)	inactive: 1.6%
CCOC(=O)c1ccc(NC(=O)C(C)(CCl)SC)cc1 (stereo unspecified)	inactive: 0.75%
CCC(C)N(CC(C)C)C(=S)SC(NC(C)=O)C(Cl)(Cl)Cl (stereo unspecified)	inactive: 1.01%
COC(=O)C1(C)COP(=O)(N2CCCC2)OC1 (stereo unspecified)	inactive: -0.68%
COP1(=S)c2c(C)nn(CCC#N)c2N=C(c2ccc(F)cc2)N1C (stereo unspecified)	inactive: -0.25%
